Patent US9469584B2, “Method for producing butanol using extractive fermentation” (Butamax Advanced Biofuels LLC, priority 2013, dated 2016)

Tests used:
[1] = Density of the pure solvent; format: physicochemical
[2] = system: ethanologen (Ethanol Red); experiment: Biocompatibility test, ethanologen: glucose consumption in the presence of test solvent; details: text summary of Tables 3-6

With `CCCCOP(=O)(OCCCC)OCCCC` the density ([1]; Table 7) was 0.979, the density ([1]; pure solvent) was 0.979 and the “uptake of glucose with yeast” value [2] was “completely inhibited”.
